Measurements published in patent US20260174855A1 (priority 2022, published 2026).

System: pregnant Sprague-Dawley rats
Assay: fentanyl-induced catalepsy in pregnant dams
Conditions: for maximum group mean of catalepsy: 0.1 mg/kg/day minipump plus daily fentanyl 100 μg/kg s.c., cutoff 30 seconds

Structure (SMILES)	maximum group mean of catalepsy (GD 14) [s]	time to return to pre-FENT levels after FENT injection (GD 20)	maximum group mean of catalepsy (GD 20) [s]
[2H]C([2H])(C1CC1)N1CC[C@]23c4c5ccc(O)c4O[C@H]2[C@@]2(OC)CC[C@@]3(C[C@@H]2[C@](C)(O)C(C)(C)C)C1C5 [BUP-D2, (4aS,6R,7R,7aR,12bS)-3-(cyclopropylmethyl-d2)-6-((S)-2-hydroxy-3,3-dimethylbutan-2-yl)-7-methoxy-1,2,3,4,5,6,7,7a-octahydro-4a,7-ethano-4,12-methanobenzofuro[3,2-e]isoquinolin-9-ol]	12.95	30 min	10.73
CO[C@@]12CC[C@@]3(C[C@@H]1[C@](C)(O)C(C)(C)C)C1Cc4ccc(O)c5c4[C@@]3(CCN1CC1CC1)[C@H]2O5 [BUP, buprenorphine]	24.13	over 60 minutes	20.78
